The source of these data is patent US5998437A, “Benzimidazole derivatives” (Otsuka Pharmaceutical Co., Ltd., priority 1995, dated 1999).

The structures appear in SMILES notation. Where two headings read alike, the source gives them in different places.

One test concerns the target cGMP-PDE (Homo sapiens, UniProt O76074). Kind of test: Activity for inhibiting cGMP PDE (PDE partially purified from human platelets, FI fraction). Type of test: biochemical. The settings on record: read-out: Activity for inhibiting cGMP-PDE [IC50 (μM)], 0.4 μM of [3H]-cGMP. How it is done: (1) Measurement of the Activity for Inhibiting cGMP PDE
Separation and partial purification of PDE (phosphodiesterase) from human platelets, and measurement of the activity for inhibiting cGMP PDE were conducted by the method of Hidaka, et al. [Biochimica et Biophysica Acta, Vol. 429, (1976), pp. 485-497]. The platelets obtained from human healthy adult were washed, and suspended in TRIS-buffer solution, then said suspension was treated by centrifugal separation, the supernatant was subjected to a DEAE-cellulose treatment and fractionated into FI to FIII fractions by a method of concentration gradient of sodium acetate. Thus obtained FI fraction was used as the sample of cGMP-PDE. The activity for inhibiting cGMP-PDE was measured by using 0.4 μM of [^3 H]-cGMP.

The subject of a further test is human fibroblast. Kind of test: Activity for inhibiting proliferation of the human fibroblast ([3H]-thymidine uptake). To be noted: read-out: Activity for inhibiting proliferation of the human fibroblast, IC50, tested form: HCl. How it is done: (§1) Test was conducted by the modified method of N. Morisaki [Atherosclerosis, Vol. 71, (1988), pp. 165-171]. The rat A10 cells (purchased from Dainippon Pharmaceutical Co., Ltd.) were inoculated on a 24 wells immunoplate at a density of 10,000 cells/well, and were cultured in 10% FBS (fetal bovine serum) for 2 days, and in order to introduce the cells into the resting stage, the cells were further cultured in a serum-free medium for 2 days. After that, 1% FBS was added thereto for stimulating the proliferation, of the cells and at the same time, a test compound and 0.5 μCi/well of [^3 H]-thymidine were added. As to the index of synthesized amount of DNA, the quantity of [^3 H]-thymidine being uptaken by the cells was measured at the time of 24 hours after the final cultivation was started.
(3) Measurement of the Activity for Inhibiting Proliferation of the Human Fibroblast
Similar to the activity for inhibiting proliferation of rat A10 cells as mentioned above, the activity for inhibiting proliferation of the human fibroblast (purchased from Dainippon Pharmaceutical Co., Ltd.) was determined by measuring the uptake amount of [^3 H]-thymidine. Compounds of Examples 3, 16, 31, 33, 45 and 47 were used for the test, and the measured values of IC50 were, 0.04 μM, 0.049 μM, 0.18 μM, 0.042 μM, 0.041 μM and 0.021 μM, respectively.

A further test concerns rat A10 cells. The experiment in a line: Activity for inhibiting proliferation of rat A10 cells ([3H]-thymidine uptake). Type of test: cell-based. The settings on record: read-out: Activity for inhibiting proliferation of rat A10 cells [IC50 (μM)]; 1% FBS stimulation, 24 hours. How it is done:
(2) Measurement of the Activity for Inhibiting Proliferation of Rat A10 Cells
as §1

In the case of `O=C(Nc1cn(CCCn2ccnc2)c2ccccc12)c1nc2ccc(Cl)cc2n1Cc1ccccc1`, the IC50 on cGMP-PDE (tested form: HCl) was determined as 0.03 µM; in the test with human fibroblast, 180 nM.

`O=C(Nc1c[nH]c2ccccc12)c1nc2ccc(Cl)cc2n1Cc1ccccc1`: the results for the IC50 at cGMP-PDE and in the test on rat A10 cells were 0.06 µM and 0.24 µM, respectively.
